Results from article PMC7555839 (Frontiers in Microbiology, 2020).

Tested on: Escherichia coli mutant [wp2 (pKM101)]
Assay: Ames test
Conditions: Positive control, −S9, 1 µg/well

CN(N=O)C(=N)N[N+](=O)[O-]
Mean number of reverse mutated colonies: 206.67 ± 16.65
